Measured values reported in patent US20110224300A1, “USE OF POTASSIUM 2-(a- HYDROXYPENTYL) BENZOATE IN THE MANUFACTURE OF MEDICAMENTS FOR PREVENTING AND/OR TREATING SENILE DEMENTIA” (Institute of Mataria Medica, Chinese Academy of Me, priority 2008, published 2011).

Legend:
Format in all cases: in vivo, rat
[1] = tested on: SOD; experiment: SOD activity of brain tissues from permanent 2-VO rats
Method: (§1) Rats were randomly divided into six experimental groups (20 rats/each group): one sham-operated group, one vehicle control group, one piracetam-treated group (600 mg/kg), and three dl-PHPB-treated groups (13, 39, and 129 mg/kg). In 10 days after onset of 2-VO, drugs and vehicle were administered orally to rats for 21 days (one time/each day). The spatial learning and memory capability of rats were detected by Morris water maze in the 25-30 days after operation. The Morris water test was commenced at 40 min after drugs treated. The biochemical and pathology assays were conducted later (in 24 h) after behavioral tests.
(§2) The biochemical assays were conducted later (in 24 h) after behavioral testing. Eight rats in each group were anesthetized with ether and sacrificed. The brains were quickly removed and cleaned with ice-cold saline. Then the parietal cortex and hippocampus were isolated. For biochemical analysis, the tissues were weighed and homogenized in ice-cold saline with the proportion of 1:9 (w/v). Homogenization (IKA, Germany) was carried out for 2 min in an ice bath. […] The levels of choline acetyltransferase (ChAT) SOD, and MDA activities were determined with commercial colorimetric assay kits (Nanjing Jiancheng Bioengineering Institute, China). The content of protein in the supernatant was determined by Bradford method using BSA as standard.

[2] = tested on: MDA; experiment: MDA level of brain tissues from permanent 2-VO rats
Method: as §1, §2

[3] = tested on: ChAT; experiment: ChAT activity of brain tissues from permanent 2-VO rats
Method: as §1, §2

Question: Which “SOD activity in hippocampus” value ([1]; hippocampus, doses not given) does the source give for `NC(=O)CN1CCCC1=O` [Piracetam, reference compound] here?
Answer: no significant effects

Question: What about the “SOD activity in cortex” value ([1]; piracetam 600 mg/kg, 21 days) of the same molecule?
Answer: significantly alleviated the increase of SOD activity

Question: What about the “MDA level in hippocampus” value ([2]; hippocampus, doses not given) of the same molecule?
Answer: no significant effects

Question: And the “MDA level in cortex” value ([2]; piracetam 600 mg/kg, 21 days)?
Answer: did not show significant effects

Question: What about the “ChAT activity in cortex” value ([3]; cortex, data not shown) of the same molecule?
Answer: had no effect

Question: What about the “activity of ChAT in hippocampus” value ([3]; piracetam 600 mg/kg, 21 days) of the same molecule?
Answer: did not show significant effects
